# Test system: hypertensive patients with coronary artery disease
smiles,measurement,setting,value
CC(C)NCC(O)COc1ccc(CC(N)=O)cc1 (stereo not drawn) [atenolol],Modification of the adverse effect of ADRB2 46G-79C-523C haplotype on primary outcome,Example 4,Neither atenolol nor verapamil SR modified the adverse effect of this haplotype
same,Systolic and diastolic blood pressure control,"patients treated with verapamil vs atenolol, FIG. 23",did not differ
same,"Risk for the primary outcome, atenolol- vs verapamil SR-treated patients",within each ADRB1 145A-1165C haplotype strata,similar

# From US20100021903A1, “Use of Genetic Determinants in Cardiovascular Risk Assessment” (priority 2006, published 2010)
